According to PubChem BioAssay (EPA / NIEHS):
The list shows a part of the results, in another mix than the full data. Results filed as inconclusive are left out. Calls of active or inactive are those of the source. The calls were made as follows, unless noted: active = hit-call score of the fitted dose curve at least 0.9, where 1 is the maximum; inactive = score below 0.9.

What was measured:
[1] = read-out: Interleukin-8 (IL8), CXCL8 (gene 3576); experiment: BSK_MyoF_IL8: BioMAP Diversity Plus: MyoF Assay for Interleukin-8 (IL8) Biomarker Activity (AID 2284261); settings: primary human lung fibroblasts
How it was run: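 Lung fibroblasts (human primary) → chemical exposure → 24 h → IL-8 measured by ELISA. Signal increase scored versus DMSO control.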

Decorin, DCN (gene 1634) = experiment: BSK_MyoF_Decorin: BioMAP Diversity Plus: MyoF Assay for Decorin Biomarker Activity (AID 2284265); settings: primary human lung fibroblasts
How it was run: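 ELISA readout of decorin, 24 h post-dosing; primary human lung fibroblast (MyoF) culture; gain-of-signal fit vs DMSO baseline.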

[2] = BSK_MyoF_SRB: Viability Assessment in the BioMAP Diversity Plus: MyoF Assay (AID 2284267); settings: primary human lung fibroblasts;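 also: total protein by SRB absorbance in parallel cultures as cytotoxicity measure; cells assessed 24 h after compound addition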
How it was run: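 Cytotoxicity read-out: after 10% TCA fixation, parallel human lung fibroblast cultures were stained with 0.1% SRB at 24 h post-dosing and read at 560 nm; DMSO served as baseline.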

[3] = read-out: Matrix Metallopeptidase 1 (MMP1), MMP1 (gene 4312); experiment: BSK_MyoF_MMP1: BioMAP Diversity Plus: MyoF Assay for Matrix Metallopeptidase 1 (MMP1) Biomarker Activity (AID 2284268); settings: primary human lung fibroblasts
How it was run: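 Cells: human lung fibroblasts. Exposure: 24 h chemical dosing. Detection: ELISA for MMP1. Analysis: upward fitting against DMSO negative control.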

[4] = read-out: TIMP metallopeptidase inhibitor 1 (TIMP1), TIMP1 (gene 7076); experiment: BSK_MyoF_TIMP1: BioMAP Diversity Plus: MyoF Assay for TIMP metallopeptidase inhibitor 1 (TIMP1) Biomarker Activity (AID 2284269); settings: primary human lung fibroblasts
How it was run: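 Primary human lung fibroblasts, MyoF multiplex system; chemical exposure 24 h; TIMP-1 by ELISA; positive fitting direction vs DMSO control.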

[5] = IUF_NPC2c_oligodendrocyte_migration_120hr: Leibniz Research Institute for Environmental Medicine (IUF) 120-hour Neural Progenitor Cell Migration Assay for Oligodendrocyte Migration (NPC2c) (AID 2284297);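 also: O4-positive oligodendrocyte migration distance divided by radial glia migration distance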
How it was run: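 hNPC spheres (GW 16-19 cortex), PDL/laminin, DMEM/F12 3:1 + 1% N2, 37C. Dosing day 0–5, half feed day 3, DMSO ≤0.1%. Fixed 120 h; O4 ICC + Hoechst, HCI. Readout: mean oligodendrocyte distance from sphere edge / radial glia distance.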

[6] = IUF_NPC2a_radial_glia_migration_120hr: Leibniz Research Institute for Environmental Medicine (IUF) 120-hour Neural Progenitor Cell Migration Assay for Radial Glia Migration (NPC2a) (AID 2284298)
How it was run: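 Hoechst-stained nuclei imaged at 120 h; algorithm maps sphere core by densest nuclei, sets migration edge at density threshold, gives radial glia migration distance (um) per well vs DMSO. hNPC spheres (0.3 mm), PDL/laminin, DMEM/F12 3:1 + 1% N2.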

[7] = IUF_NPC2a_radial_glia_migration_72hr: Leibniz Research Institute for Environmental Medicine (IUF) 72-hour Neural Progenitor Cell Migration Assay for Radial Glia Migration (NPC2a) (AID 2284299)
How it was run: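 Radial glia migration (µm, sphere core edge to migration front, four directions averaged) from brightfield images at 72 h; hNPC spheres differentiating on PDL/laminin in N2 medium, compound exposure at 7 concentrations from plating.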

[8] = IUF_NPC2b_neuronal_migration_120hr: Leibniz Research Institute for Environmental Medicine (IUF) 120-hour Neural Progenitor Cell Migration Assay for Neuron Migration (NPC2b) (AID 2284300)
How it was run: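 hNPC spheres, PDL/laminin, DMEM:F12 3:1 + 1% N2, 37C/5% CO2; 7 concentrations + solvent control (DMSO ≤0.1%), 5 d exposure, half-feed day 3. Fix 120 h, TUBB3 ICC, HCI: mean neuron migration distance ÷ glia distance.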

[9] = IUF_NPC3_neuronal_differentiation_120hr: Leibniz Research Institute for Environmental Medicine (IUF) 120-hour Neuronal Differentiation Assay (NPC3) (AID 2284301)
How it was run: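 hNPC spheres, PDL/laminin, DMEM/F12 3:1 + 1% N2, 37C, 5% CO2; 7 concentrations + solvent control, 5 d exposure, half-change day 3. Fix 120 h; TUBB3/Hoechst ICC, CNN neuron calling; % neurons vs nuclei, DMSO-normalized.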

[10] = IUF_NPC4_neurite_length_120hr: Leibniz Research Institute for Environmental Medicine (IUF) 120-hour Neuronal Morphology Assay for Neurite Length (NPC4) (AID 2284302)
How it was run: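 hNPC spheres (0.3 mm, fetal brain GW 16-19) on PDL/laminin, DMEM:F12 3:1 + 1% N2, 37C 5% CO2; 7 concs + solvent control, day 0-5, half medium change d3; fix 120 h, TUBB3 ICC, mean neurite length um vs DMSO.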

[11] = IUF_NPC5_oligodendrocyte_differentiation_120hr: Leibniz Research Institute for Environmental Medicine (IUF) 120-hour Oligodendrocyte Differentiation Assay (NPC5) (AID 2284304; active = hit-call score of the fitted dose curve at least 0.9, where 1 is the maximum;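 also: primary human fetal neural progenitor spheres plated to migrate and differentiate; share of O4-positive cells among Hoechst nuclei found by CNN image analysis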)
How it was run: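 hNPC spheres, fetal cortex GW 16-19; PDL/laminin, DMEM:F12 3:1 + 1% N2, 37C/5% CO2; 7 concentrations + solvent control, 5 d exposure, half-change day 3. Readout: %O4+ of Hoechst+ nuclei in migration area, CNN classification; DMSO baseline.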

[12] = IUF_NPC4_neurite_area_120hr: Leibniz Research Institute for Environmental Medicine (IUF) 120-hour Neuronal Morphology Assay for Neurite Area (NPC4) (AID 2284305; active = hit-call score of the fitted dose curve at least 0.9, where 1 is the maximum)
How it was run: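 hNPC spheres on PDL/laminin, N2 medium, 37C/5% CO2; dosed day 0, half-medium refresh day 3; fixed 120 h; TUBB3/Hoechst ICC, high-content imaging; neurite area = mean pixels per neuron (nuclei excluded); DMSO baseline, max 0.1%.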

[13] = IUF_NPC2-5_cytotoxicity_120hr: Cytotoxicity Assessment at 120 hours in the Leibniz Research Institute for Environmental Medicine (IUF) Neural Progenitor Cell Migration and Differentiation Assay (NPC2-5) (AID 2284307; active = hit-call score of the fitted dose curve at least 0.9, where 1 is the maximum)
How it was run: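 hNPC spheres on PDL/laminin, N2 medium, 37C; 7 concs + solvent control, DMSO ≤0.1%; 5-day exposure, half medium changed day 3. LDH in supernatant at 120 h, resazurin→resorufin fluorescence, gain-of-signal.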

[14] = IUF_NPC2-5_cell_number_120hr: Cell Number Assessment at 120 hours in the Leibniz Research Institute for Environmental Medicine (IUF) Neural Progenitor Cell Migration and Differentiation Assay (NPC2-5) (AID 2284308);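 also: count of Hoechst-stained nuclei in migration zone around plated human neural progenitor spheres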
How it was run: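 Hoechst-stained nuclei within the migration area were counted by automated high content imaging after 120 h. Single hNPC spheres differentiated on poly-D-lysine/laminin in DMEM/F12 (3:1) with 1% N2, compound present throughout, DMSO ≤0.1%.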

[15] = IUF_NPC2-5_viability_120hr: Viability Assessment at 120 hours in the Leibniz Research Institute for Environmental Medicine (IUF) Neural Progenitor Cell Migration and Differentiation Assay (NPC2-5) (AID 2284312)
How it was run: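 Human fetal neural progenitor spheres (0.3 mm) plated on poly-D-lysine/laminin in N2 differentiation medium, exposed 120 h with half-medium refresh at day 3. Viability by alamar blue resazurin fluorescence; 7 concentrations, DMSO max 0.1%.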

[16] = CCTE_Mundy_HCI_iCellGluta_NOG_NeuriteLength: CCTE's Neurite Outgrowth Assay in iCellGluta cells for Neurite Length, Mundy Lab (AID 2284318; active = hit-call score of the fitted dose curve at least 0.9, where 1 is the maximum)
How it was run: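 Automated high-content imaging of betaIII-tubulin (Alexa Fluor-488) and Hoechst-stained cells gave neurite length, normalized to the DMSO baseline.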

[17] = CCTE_Deisenroth_5AR_NBTE_donor: CCTE's 5alpha-reductase NanoBRET Target Engagement Assay […], Deisenroth Lab (AID 2284319); settings: actives raise or lower the signal
How it was run: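 Donor NanoLuc luminescence at 460-20 nm is the read-out, serving artifact detection. Transiently expressed SRD5A2-NanoLuc in HEK293T; 5 h total chemical exposure, testosterone tracer added for the final 2 h; fitting bidirectional relative to DMSO baseline.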

[18] = CCTE_Deisenroth_5AR_NBTE_acceptor: CCTE's 5alpha-reductase NanoBRET Target Engagement Assay - Autofluorescence Screen, Deisenroth Lab (AID 2284321); settings: actives raise or lower the signal;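 also: compound fluorescence in the acceptor channel under 460 nm excitation flags autofluorescence artifacts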
How it was run: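 Autofluorescence check: ToxCast chemicals, nominal 100 uM, excitation 460 nm, n=3 runs. Acceptor fluorescence endpoint, bidirectional fit relative to DMSO. Parent assay in HEK293T, 5 h post-dose.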

[19] = IUF_NPC2-5_cytotoxicity_72hr: Cytotoxicity Assessment at 72 hours in the Leibniz Research Institute for Environmental Medicine (IUF) Neural Progenitor Cell Migration and Differentiation Assay for Cytotoxicity (NPC2-5) (AID 2284306; active = hit-call score of the fitted dose curve at least 0.9, where 1 is the maximum;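 also: LDH release into supernatant measured by resorufin fluorescence marking membrane damage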)
How it was run: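 hNPC spheres (0.3 mm), PDL/laminin, DMEM/F12 3:1 + 1% N2; cpd from d0, 7 concs + SC, DMSO max 0.1%; half-medium refresh d3. Readout: supernatant LDH via resorufin fluorescence (RFU), 72 h; gain-of-signal fit.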

Measured: AC50

O=[N+]([O-])c1ccc([N+](=O)[O-])cc1
inactive: [1] | Decorin, DCN (gene 1634) | [2] | [3] | [4]

O=C(Cl)Oc1ccccc1
inactive: [1] | Decorin, DCN (gene 1634) | [2] | [3] | [4]

CC(C)OP(=S)(OC(C)C)SCCNS(=O)(=O)c1ccccc1
inactive: [5] | [7] | [8] | [9] | [10] | [12] | [13] | [14] | [15] | [17] | [18]
active: [6] 52.2 µM | [11] 1.64 µM | [16] 22.3 µM

CC(C)OP(=O)(OC(C)C)SCCNS(=O)(=O)c1ccccc1
inactive: [5] | [6] | [7] | [8] | [9] | [10] | [11] | [12] | [19] | [13] | [14] | [15] | [16]

Cc1cc([N+](=O)[O-])cc([N+](=O)[O-])c1O
inactive: [17] | [18]
